## Apparent affinities of Ab-14 variants for a coronavirus HR2 peptide

Source: Engelhart et al. 2022 (doi:10.1038/s41597-022-01779-4), MIT Lincoln Laboratory and A-Alpha Bio; data file from the FLAb repository.

Binding partner: SARS-CoV-2 spike HR2 peptide, sequence PDVDLGDISGINAS.

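Phage display of a naive human antibody library on the peptide gave the parent. Variants in AAYL50 differ from the parent at up to three CDR positions; double and triple changes were sampled at random. The assay is AlphaSeq: two haploid yeast populations carry antibody and antigen on their surface. The frequency of each diploid, read from paired DNA barcodes, reflects how well the two displayed proteins bind. Read counts were normalised to the haploid input and turned into Kd by a linear fit to BCL2-family pairs of known affinity, for each replicate. Mating was done three times.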

The variants keep the heavy chain, the linker and the frameworks of Ab-14 (scFv order VH, a (GGGGS)3 linker, VL).
VH: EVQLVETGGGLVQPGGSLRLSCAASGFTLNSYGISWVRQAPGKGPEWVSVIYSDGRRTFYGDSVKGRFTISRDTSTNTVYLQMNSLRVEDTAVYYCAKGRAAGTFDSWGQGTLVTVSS
VL: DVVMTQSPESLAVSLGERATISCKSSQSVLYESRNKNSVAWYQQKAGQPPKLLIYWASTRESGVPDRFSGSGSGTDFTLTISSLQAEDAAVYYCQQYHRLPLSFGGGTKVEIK

The parent's light chain CDRs are KSSQSVLYESRNKNSVA, WASTRES, QQYHRLPLS; each variant's own CDRs replace them letter for letter. Scale: log10 of Kd in nM, estimated from mating counts; low values are strong binders. The mean shown is taken over the replicates in which the pair was detected. "not detected" means that the variant was in the library but no mating with the target was seen in any replicate; the authors take this as a sign of poor binding, and no number exists. Empty control strains, which show no peptide, gave a signal in 18% of pairings with library AAYL50; the median was 4.19 and 95% of these signals were weaker than 2.99. No background was subtracted.

| CDR-L1 | CDR-L2 | CDR-L3 | mean log10 Kd (nM) | seen in |
|---|---|---|---|---|
| KSSQSVLYEKMNKNSVA | WASNRES | QQYHRLPLS | 0.82 | 3/3 |
| KSSQSVLYESINKGSVA | WASTRES | QQYHRLWLS | 3.84 | 1/3 |
| KISQSVWYESRNKNSVA | WARTRES | QQYHRLPLS | 0.35 | 3/3 |
| KSSQSVLYESRNKNSVA | WASTRES | QITHRLPLM | 3.83 | 3/3 |
| KSSQSVLYEDRNNNSVA | WASTRES | QQVHRLPLS | 4.19 | 3/3 |
| KWSQSVLYESRNKNAVA | WASTRES | QQYHRLPKS | 1.07 | 3/3 |
| KSSQSVLYESRNKNSVA | WASTRES | QLYHILPVS | not detected | 0/3 |
| KSSQSELYESRNKNSVA | WRSTRES | QGYHRLPLS | 4.10 | 2/3 |
| KSSQSVLYESRNKNSVD | WASTRES | QQYRVLPLS | not detected | 0/3 |
| KMSQSVLYESRNKNSVA | WVYTRES | QQYHRLPLS | not detected | 0/3 |
| KSSQSVLYGSRNKNSVA | WASGREA | QQYHRLPLS | 1.84 | 3/3 |
| KSSQSVLFESRNKNSVA | WASTRES | QQYPRLPLS | 1.48 | 3/3 |
| KSSQSVLYESRNKNSVA | WASTRET | QWEHRLPLS | not detected | 0/3 |
| KSSQSVLYESRNKNSVA | WHSTRNS | QQYHRLPLS | 4.80 | 1/3 |
| KSPQSVLYHSRNKNSVA | WASTRES | QQYHRTPLS | 3.59 | 3/3 |
| KSSQSVLYEMRNKYSVA | WASTRES | PQYHRLPLS | 4.99 | 1/3 |
| KYSQSVLYESRNKNSVN | WASTAES | QQYHRLPLS | not detected | 0/3 |
| KSSQSVYYESRNKSSVA | WASTRES | QQYHRPPLS | 4.04 | 1/3 |
| KSSQSVLYESRNKNSWA | WASTRES | QQYQRLPLG | 3.56 | 1/3 |
| KSSQSVLYESRNKNSVA | WASTRET | QFYHELPLS | 2.54 | 3/3 |
| KSSQSVLYENRNKFSVA | WASTRES | QQYHRLPLS | 1.53 | 3/3 |
| KYSQCVLYESRNKNSVA | WASTRES | DQYHRLPLS | 2.90 | 2/3 |
| KSPQSFLYESRNKNSVA | WASTRES | QTYHRLPLS | 0.32 | 3/3 |
| KSSQSYLYESRNKNSVI | KASTRES | QQYHRLPLS | not detected | 0/3 |
| KSSQSVLYESRNHNSVA | WASTRES | QTYFRLPLS | 2.50 | 3/3 |
| KSSQSVLYESPNKISVA | WASTRES | DQYHRLPLS | not detected | 0/3 |
| KCSQSVLYESRNKDSVA | WASTRES | QQYHRLPLS | 0.72 | 3/3 |
| KSHQSVLYESRNKNSVA | WASTRES | QQYHRLPGS | 1.87 | 3/3 |
| KSSQSVLYESRNDNSVA | WASGRES | QQYHRLPLS | 5.12 | 2/3 |
| KHSQSVLYFSRNKNSVA | WASTRES | QQYHRLPLS | 1.68 | 3/3 |
| KSSQSVLYESRDKNSVA | WPSTRES | QQYHRLPPS | 5.28 | 1/3 |
| KSSQSVLYESRMKNSVQ | WASTRES | QQYHTLPLS | not detected | 0/3 |
| KSSQSVLYHSRNKNSVA | WASTRES | QQYHRLPDS | 2.15 | 3/3 |
| ASSWSVLYESRNKNSVA | QASTRES | QQYHRLPLS | 1.28 | 3/3 |
| KSSQSCLYESRNKNSVA | HGSTRES | QQYHRLPLS | 1.13 | 3/3 |
| KSSQSVPYESRNVNSVA | WASTRES | QKYHRLPLS | 3.85 | 1/3 |
| KSSQSVLYEERNKNSVA | WASMRES | GQYHRLPLS | 3.71 | 3/3 |
| GSSQSVLYEYRNKNSVA | WASTRLS | QQYHRLPLS | 2.33 | 3/3 |
| KSSRSVLYESRNKNSVA | WASTRWS | QQYHRLPGS | 4.03 | 1/3 |
| FSSQSVLYESRGKNSVA | WASTRES | QQYHRLPLS | not detected | 0/3 |
| KSSLSVLYESREKNSVA | WASTRES | QQYARLPLS | 0.50 | 3/3 |
| KSSQSVLYESRRKNSVA | WASTRES | VQYRRLPLS | not detected | 0/3 |
| KSSQSVLYESRNKNSVH | WASTRES | QQYHRDILS | 4.12 | 2/3 |
| KQSQSVLYESRNKNSVA | WASTTES | QQYGRLPLS | 2.49 | 3/3 |
| KSSHSVLYESRNQNSVA | WASTRES | QLYHRLPLS | 3.20 | 2/3 |
| CSSQSVLYESRNKNSVG | WASTRES | QQYHRLPLS | not detected | 0/3 |
| KSSCSVLYESRNKNSVM | WASTRES | QQYHWLPLS | 5.27 | 1/3 |
| KSSQSVLYESRNKNSVA | WASTRES | QQYYRLCLS | not detected | 0/3 |

The opening 6 entries, copied out:

| CDR-L1 | CDR-L2 | CDR-L3 | mean log10 Kd (nM) | seen in |
|---|---|---|---|---|
| KSSQSVLYEKMNKNSVA | WASNRES | QQYHRLPLS | 0.82 | 3/3 |
| KSSQSVLYESINKGSVA | WASTRES | QQYHRLWLS | 3.84 | 1/3 |
| KISQSVWYESRNKNSVA | WARTRES | QQYHRLPLS | 0.35 | 3/3 |
| KSSQSVLYESRNKNSVA | WASTRES | QITHRLPLM | 3.83 | 3/3 |
| KSSQSVLYEDRNNNSVA | WASTRES | QQVHRLPLS | 4.19 | 3/3 |
| KWSQSVLYESRNKNAVA | WASTRES | QQYHRLPKS | 1.07 | 3/3 |